Assay results reported in paper PMC11237553, “De novo synthetic antimicrobial peptide design with a recurrent neural network” (Protein Science : A Publication of the Protein Society, 2024).

Tests used:
[1] = test system: Escherichia coli ATCC 25922; experiment: Broth microdilution antimicrobial susceptibility testing (MIC/MBC); type: cell-based; details: one maximum and one minimum data point dropped; for MIC, E. coli ATCC 25922: broth microdilution (CLSI, adapted for cationic AMPs), Mueller‐Hinton Broth, 5 ± 3 × 10^5 CFU/mL, 20–24 h at 37°C, test range 128 down to 0.25 μg/mL, lowest effective concentration range in three independent experiments in duplicate; for MBC, E. coli ATCC 25922: concentration killing 99.9% of the inoculum, plated from MIC wells, 24 h at 37°C, range in three independent experiments in duplicate
Method: (§1) Bacteria from frozen stocks were streaked onto non‐selective Columbia blood agar with 5% sheep blood (Oxoid) and incubated for 18–24 h at 37°C. The following day, 2–4 colonies were streaked onto a new agar plate and incubated for 18–24 h at 37°C to ensure uniform colony health prior to the assay. A standardized bacterial inoculum was prepared by suspending isolated colonies in Mueller‐Hinton Broth (MHB; Sigma‐Aldrich, St. Louis, MO, USA). The suspension was adjusted to an optical density of 0.08–0.1 at 600 nm, equivalent to a 0.5 McFarland standard of approximately 1–2 × 10^8 CFU/mL (CFU: colony forming units). The inoculum was then diluted 1:250 to achieve a final concentration of 5 ± 3 × 10^5 CFU/mL. The target bacterial density was confirmed by examining the total viability counts from the final inoculum.
(§2) Candidate AMPs were purchased from and synthesized by GenScript (Piscataway, NJ, USA). These were received in lyophilized format and stored at −20°C, and were suspended in sterile ultrapure water prior to testing.

[2] = test system: Staphylococcus aureus ATCC 29213; experiment: as above; type: cell-based; details: one maximum and one minimum data point dropped; for MIC, S. aureus ATCC 29213: broth microdilution (CLSI, adapted for cationic AMPs), Mueller‐Hinton Broth, 5 ± 3 × 10^5 CFU/mL, 20–24 h at 37°C, test range 128 down to 0.25 μg/mL, lowest effective concentration range in three independent experiments in duplicate; for MBC, S. aureus ATCC 29213: concentration killing 99.9% of the inoculum, plated from MIC wells, 24 h at 37°C, range in three independent experiments in duplicate
Method: as §1, §2

[3] = test system: Porcine red blood cells (RBCs); experiment: Hemolysis assay; type: cell-based, pig; details: 1% porcine RBC in RPMI, 37°C for 30–45 min, absorbance 415 nm, test range 128 down to 1 μg/mL, Triton‐X100 = 100%; range in three independent experiments in duplicate, one maximum and one minimum data point dropped

Substance	MIC, E. coli ATCC 25922 [1] [µg/mL]	MBC, E. coli ATCC 25922 [1] [µg/mL]	MIC, S. aureus ATCC 29213 [2] [µg/mL]	MBC, S. aureus ATCC 29213 [2] [µg/mL]	HC50 (concentration that lyses 50% of the RBCs), porcine RBCs [3] [µg/mL]
DLLKTLKKIAKKLLKTLLKKLLKKLLKKL [DeNo1023]	128	128	> 128	> 128	> 128
LLPSLLKGLAKKL [DeNo1053]	> 128	> 128	> 128	> 128	> 128
MLPSIAGAAAKGLPKLFCKITKKC [DeNo1038]	–	–	> 128	> 128	> 128
TLPDVAKNVAKNVAKTVLDTLKCKITGKC [DeNo1020]	–	–	> 128	> 128	> 128
CLPSILCKITKKC [DeNo1044]	≥ 128	≥ 128	> 128	> 128	> 128
KLPSIIKAAAKALPKLF [DeNo1034]	–	–	> 128	> 128	> 128
QLPSVLPAIAKAL [DeNo1036]	> 128	> 128	> 128	> 128	> 128
CLPSLLPSLFKKL [DeNo1028]	> 128	> 128	> 128	> 128	> 128
CLPSILC [DeNo1037]	> 128	> 128	> 128	> 128	> 128
MLPKIAGKIAKKL [DeNo1041]	> 128	> 128	> 128	> 128	> 128
FLPKIFKKIAKKI [DeNo1055]	≥ 128	≥ 128	> 128	> 128	> 128
FLPKIAGKIAGKL [DeNo1050]	> 128	> 128	> 128	> 128	> 128
ALPSIIKGLLKKL [DeNo1047]	≥ 128	≥ 128	> 128	> 128	> 128
MLPKIAGAIAKLL [DeNo1042]	> 128	> 128	> 128	> 128	> 128
FLPKIAGKIAKKL [DeNo1058]	> 128	> 128	> 128	> 128	> 128
NLLDTLKNVAKNVAKNVLDTLKCKITCKC [DeNo1015]	128	128	> 128	> 128	> 128
WLPKIAGKIAGKL [DeNo1043]	> 128	> 128	> 128	> 128	> 128

Substance	MIC, E. coli ATCC 25922 [1] [µg/mL]	MBC, E. coli ATCC 25922 [1] [µg/mL]	MIC, S. aureus ATCC 29213 [2] [µg/mL]	MBC, S. aureus ATCC 29213 [2] [µg/mL]	HC50 (concentration that lyses 50% of the RBCs), porcine RBCs [3] [µg/mL]
FLPKIAGKAAKKLPKIFCKITKKC [DeNo1019]	–	–	> 128	> 128	> 128
KLFGKILGKIAKKILGKILGALLSKLLSAL [DeNo1024]	≥ 128	≥ 128	> 128	> 128	> 128
PLPPIIPGLASGLLSGLC [DeNo1033]	> 128	> 128	> 128	> 128	> 128
FLPKIFKKIAKKL [DeNo1045]	–	–	> 128	> 128	> 128
SLPSILSGIAGKL [DeNo1029]	> 128	> 128	> 128	> 128	> 128
RLPRIFRGIRGKL [DeNo1030]	128	≥ 128	> 128	> 128	> 128
QLPRIAGKIAKKL [DeNo1035]	> 128	> 128	> 128	> 128	> 128
RLPSIIPGIAGKLGGLLGGLLKGL [DeNo1027]	–	–	> 128	> 128	> 128
GLLSLLKKLLKKL [DeNo1056]	–	–	> 128	> 128	> 128
DLLSCLKKKGKCVLKNL [DeNo1025]	> 128	> 128	> 128	> 128	> 128
KIFGKILKKLLKKLLKKLLKKL [DeNo1013]	–	–	> 128	> 128	–
YLPSVLPSVLKPL [DeNo1032]	> 128	> 128	> 128	> 128	> 128
YLPSVLKGLLKKL [DeNo1052]	≥ 128	≥ 128	> 128	> 128	> 128
LLPSLLKGLLKKL [DeNo1048]	128	128	> 128	> 128	> 128
QLPKIAGKIAKKL [DeNo1054]	> 128	> 128	> 128	> 128	> 128
TKPKGTKPKGTKPKG [OT15, in‐house peptide [TKPKG]3, truncated from negative control peptide [TKPKG]4 (OT20); negative control, reference compound]	> 128	> 128	> 128	> 128	> 128
